Drawing on patent publication US20020115640A1, “Farnesyltransferase inhibitors” (priority 2000, published 2002), this text covers inhibition for six molecules.

By UniProt entry, the sequences of proteins in these tests, tags left out.
UniProt Q02293, whole entry: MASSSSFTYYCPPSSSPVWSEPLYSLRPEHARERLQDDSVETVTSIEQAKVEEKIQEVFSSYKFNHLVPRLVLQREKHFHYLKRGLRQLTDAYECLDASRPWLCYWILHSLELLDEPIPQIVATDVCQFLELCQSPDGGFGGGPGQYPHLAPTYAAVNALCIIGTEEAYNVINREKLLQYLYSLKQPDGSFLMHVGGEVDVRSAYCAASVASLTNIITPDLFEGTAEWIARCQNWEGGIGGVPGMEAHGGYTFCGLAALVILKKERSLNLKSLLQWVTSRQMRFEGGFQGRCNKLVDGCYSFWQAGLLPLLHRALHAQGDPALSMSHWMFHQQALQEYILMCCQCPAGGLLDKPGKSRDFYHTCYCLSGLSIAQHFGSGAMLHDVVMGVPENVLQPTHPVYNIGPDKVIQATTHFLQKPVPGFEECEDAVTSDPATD

For the assay, the target named is T1, farnesyltransferase (Rattus norvegicus, UniProt Q02293+Q04631).
T1 construct: The enzyme can be purified according to Cell, 62: 81-88 (1990), utilizing steps one, two, and three; from tissue; host or cells: rat brain
Briefly: Inhibition of farnesyltransferase (3H-farnesyldiphosphate / H-Ras filter assay). The conditions noted are these: for inhibition at 0.1 µM: read-out: % Inhibition at 10^−7 M. The assay is classed as biochemical. The text has this: The ability of the compounds of the present invention to inhibit farnesyltransferase can be measured according to the method described in J. Biol. Chem., 266: 14603 (1991) or J. Biol. Chem., 270:660-664 (1995). Procedures for determination of the inhibition of farnesylation of the oncogene protein Ras are described in J. Biol. Chem., 266:15575-15578 (1991) and U.S. Pat. No. 5,245,061. Inhibition of rat brain farnesyltransferase can also be measured in vitro using an Amersham Life Science commercial scintillation proximity assay kit and substituting a biotin-K Ras B fragment (0.1 μM final concentration) for the biotin-lamin substrate provided by Amersham. The enzyme can be purified according to Cell, 62: 81-88 (1990), utilizing steps one, two, and three. […] The percent inhibition of the farnesylation caused by the compounds of the present invention (at 10^−6 M) compared to an uninhibited control sample can be evaluated in the same Amersham test system.
The mixture was brought to 37° C., treated with enzyme, incubated for 30 minutes, treated with 1 M HCl/ethanol (1 mL) to stop the reaction, stirred for 15 minutes at room temperature, diluted with ethanol (2 mL), filtered through a 2.5 cm glass microfiber filter (Whatman) with ethanol rinses (4×2 mL). The glass transferred to a scintillation vial and treated with scintillation fluid (5 mL). The radioisotope retained on the glass fiber filter was counted and reflected the activity of the enzyme.

As for `COc1cccc(-c2cc(C#N)ccc2COC(c2ccc(C#N)cc2)c2cncn2C)c1` (stereo not drawn) [Example 31, 6-(((4-cyanophenyl)(1-methyl-1H-imidazol-5-yl)methoxy)methyl)-3′-methoxy(1,1′-biphenyl)-3-carbonitrile], the inhibition at 0.1 µM is above 97%.
With `Cn1cncc1C(OCc1c(-c2cccc(Cl)c2)cc(C#N)c(=O)n1C)c1ccc(C#N)cc1` (stereo not drawn) [Example 48, 5-(3-chlorophenyl)-6-(((4-cyanophenyl)(1-methyl-1H-imidazol-5-yl)methoxy)methyl)-1-methyl-2-oxo-1,2-dihydro-3-pyridinecarbonitrile], the inhibition at 0.1 µM was determined as 100%.
In the case of `Cn1cncc1C(OCc1c(-c2cc(F)cc(F)c2)cc(C#N)c(=O)n1C)c1ccc(C#N)cc1` (stereo not drawn) [Example 49, 6-(((4-cyanophenyl)(1-methyl-1H-imidazol-5-yl)methoxy)methyl)-5-(3,5-difluorophenyl)-1-methyl-2-oxo-1,2-dihydro-3-pyridinecarbonitrile], the inhibition at 0.1 µM stood at 100%.
Take `Cn1cncc1C(OCc1c(-c2cccc(OC(F)(F)F)c2)cc(C#N)c(=O)n1C)c1ccc(C#N)cc1` (stereo not drawn) [Example 50, 6-(((4-cyanophenyl)(1-methyl-1H-imidazol-5-yl)methoxy)methyl)-1-methyl-2-oxo-5-(3-(trifluoromethoxy)phenyl)-1,2-dihydro-3-pyridinecarbonitrile]: the inhibition at 0.1 µM was determined as 100%.
Same read-out and setting: next, `Cn1cncc1C(OCc1c(-c2cc(Cl)cc(Cl)c2)cc(C#N)c(=O)n1C)c1ccc(C#N)cc1` (stereo not drawn) [Example 51, 6-(((4-cyanophenyl)(1-methyl-1H-imidazol-5-yl)methoxy)methyl)-5-(3,5-dichlorophenyl)-1-methyl-2-oxo-1,2-dihydro-3-pyridinecarbonitrile]: 100%.
For the molecule `Cn1cncc1C(OCc1ccc(C#N)nc1-c1cc(F)cc(F)c1)c1ccc(C#N)cc1` (stereo not drawn) [Example 90, 5-(((4-cyanophenyl)(1-methyl-1H-imidazol-5-yl)methoxy)methyl)-6-(3,5-difluorophenyl)pyridine-2-carbonitrile], under “read-out: % Inhibition at 10^−8 M”, the inhibition at 0.01 µM turned out to be 92%.

As usually defined, the inhibition is how much of the control response was suppressed.
